The source of these data is patent US20090326072A1, “USE OF 2-(2-NITRO-4-TRIFLUOROMETHYLBENZOYL)-l,3- CYCLOHEXANEDIONE IN THE TREATMENT OF PARKINSON'S DISEASE” (priority 2005, published 2009).

Amino acid sequences for entries named in this document (tags omitted). A change or cut given only in a name is not applied to a line headed by its entry.
UniProt P32755: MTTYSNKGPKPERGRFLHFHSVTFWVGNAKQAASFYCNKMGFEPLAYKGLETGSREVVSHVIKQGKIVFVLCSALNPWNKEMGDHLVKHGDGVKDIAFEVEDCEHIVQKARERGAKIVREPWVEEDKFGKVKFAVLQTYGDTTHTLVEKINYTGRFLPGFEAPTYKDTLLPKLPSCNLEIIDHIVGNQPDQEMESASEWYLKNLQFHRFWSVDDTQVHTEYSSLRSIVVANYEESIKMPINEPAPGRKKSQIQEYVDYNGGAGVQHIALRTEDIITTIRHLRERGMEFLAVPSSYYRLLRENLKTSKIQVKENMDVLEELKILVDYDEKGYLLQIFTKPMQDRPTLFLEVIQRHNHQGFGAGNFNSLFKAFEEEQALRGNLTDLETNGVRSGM

Read-outs that look alike come from different tables or passages of the source.

Experiment [1] has as its target T1, 4-hydroxyphenyl pyruvate dioxygenase (HPPD) (Rattus norvegicus, UniProt P32755).
T1 construct: rat liver cytosol (2.7 mg of protein/ml incubate); from tissue; host or cells: rat liver (cytosol, 110,000 g supernatant)
Briefly: Determination of 4-hydroxyphenyl pyruvate dioxygenase (HPPD) enzyme activity in vitro (rate of oxygen consumption, rat liver cytosol). It counts as biochemical. The method, then:
The principle of the assay is that 4-hydroxyphenyl pyruvate dioxygenase (HPPD), an enzyme that participates in the catabolism of tyrosine, catalyses the oxidative decarboxylation and rearrangement of 4-hydroxyphenylpyruvate (HPPA) to homogentisate, with the incorporation of both atoms of molecular oxygen into the product.
Rat liver was homogenised in buffer of the following composition; 0.25 M Sucrose, 5.4 mM EDTA, 20 mM Tris base, pH 7.4, (25% homogenate) using 6 passes of a Potter type homogeniser. The homogenate was then centrifuged at 1,800 g for 10 minutes at 4° C., the pellet was discarded and the supernatant centrifuged at 17,000 g for a further 15 minutes at 4° C. The pellet was then discarded and the supernatant centrifuged at 110,000 g for 80 minutes at 4° C. The supernatant containing the HPPD enzyme from this 110,000 g spin was collected and stored frozen at −70° C. and used in the assays of the test compounds (see below).
Prior to the start of the enzymatic reaction by the addition of HPPA substrate, the enzyme and test compound (inhibitor) were incubated together for 3 minutes.
In cases where the effects of several concentrations of an inhibitor were investigated, an IC50 value (the half-maximal inhibitory concentration of test compound) was determined by plotting the data using a non-linear regression curve-fitting program using a GraphPad Prism™ software package.
Data are expressed as mean values from two experiments except where indicated. Where appropriate the values are expressed as the mean±standard deviation.

The next experiment concerns plasma tyrosine. The settings on record: AMPT rats, sampled after behavioral assessment. The method, then:
The effect was compared with appropriate vehicle control groups (oral vehicle was 1% carboxymethylcellulose; CMC) and a group that received a 150 mg/kg i.p. dose of L-dopa.

`O=C1CCCC(O)=C1C(=O)c1ccc(C(F)(F)F)cc1[N+](=O)[O-]` [Compound 2, 2-(2-Nitro-4-Trifluoromethylbenzoyl)-1,3-Cyclohexanedione] came in with a half-inhibitory concentration (IC50) in experiment [1] of 86 ± 2.4 nM. In addition, the inhibition at 0.1 µM in experiment [1] (read-out: % Inhibition at 100 nM) turned out to be 64 ± 1.6%. The inhibition at 0.3 µM in experiment [1] (read-out: % inhibition at 300 nM) is 94 ± 0.9%. The “plasma tyrosine concentration (mean)” value in the experiment with plasma tyrosine (2 mg/kg oral 4 hours post AMPT dose) worked out at 345 ± 45 nmol/mL; with plasma tyrosine (2 mg/kg oral 16 hours prior to AMPT), 2205 ± 238 nmol/mL.
